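96-well plates; 48 h exposure; 5 concentrations. Endpoints by linear interpolation between flanking doses. Not reached: highest tested concentration assigned. Abbreviation: GI50, concentration required for 50% inhibition of growth. TGI is the concentration that stops growth completely.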
Assays:
Assay in all cases: NCI-60 cell line screen, 48 h
DU-145 prostate = test system: DU-145 prostate
NCI-H322M lung = test system: NCI-H322M lung
MDA-MB-435 = test system: MDA-MB-435
M14 melanoma = test system: M14 melanoma
EKVX NSCLC = test system: EKVX NSCLC
UACC-62 melanoma = test system: UACC-62 melanoma
OVCAR-8 ovarian = test system: OVCAR-8 ovarian
NCI-H226 lung = test system: NCI-H226 lung
SN12C renal = test system: SN12C renal
MOLT-4 leukemia = test system: MOLT-4 leukemia
COLO 205 colon = test system: COLO 205 colon
A549 NSCLC = test system: A549 NSCLC
LOX IMVI melanoma = test system: LOX IMVI melanoma
NCI-H460 lung = test system: NCI-H460 lung
SF-295 CNS = test system: SF-295 CNS
IGROV1 ovarian = test system: IGROV1 ovarian
RXF 393 renal = test system: RXF 393 renal
HT29 colon = test system: HT29 colon
HOP-62 NSCLC = test system: HOP-62 NSCLC
HL-60(TB) leukemia = test system: HL-60(TB) leukemia
MALME-3M melanoma = test system: MALME-3M melanoma
SF-268 CNS = test system: SF-268 CNS
HCT-116 colon = test system: HCT-116 colon
SK-MEL-2 melanoma = test system: SK-MEL-2 melanoma
CAKI-1 renal = test system: CAKI-1 renal
RPMI-8226 leukemia = test system: RPMI-8226 leukemia
BT-549 breast = test system: BT-549 breast
NCI-H522 lung = test system: NCI-H522 lung
NCI/ADR-RES ovarian = test system: NCI/ADR-RES ovarian
U251 CNS = test system: U251 CNS
OVCAR-3 ovarian = test system: OVCAR-3 ovarian
HOP-92 NSCLC = test system: HOP-92 NSCLC
UO-31 renal = test system: UO-31 renal
786-0 renal = test system: 786-0 renal
HCT-15 colon = test system: HCT-15 colon
SK-MEL-5 melanoma = test system: SK-MEL-5 melanoma
SF-539 CNS = test system: SF-539 CNS
KM12 colon = test system: KM12 colon
SW-620 colon = test system: SW-620 colon
SR leukemia = test system: SR leukemia
MCF7 breast = test system: MCF7 breast
ACHN renal = test system: ACHN renal
SNB-75 CNS = test system: SNB-75 CNS
MDA-MB-231 breast = test system: MDA-MB-231 breast
A498 renal = test system: A498 renal
HS 578T breast = test system: HS 578T breast
OVCAR-4 ovarian = test system: OVCAR-4 ovarian
PC-3 prostate = test system: PC-3 prostate
K-562 leukemia = test system: K-562 leukemia
OVCAR-5 ovarian = test system: OVCAR-5 ovarian
T-47D breast = test system: T-47D breast
SK-MEL-28 melanoma = test system: SK-MEL-28 melanoma
MDA-N = test system: MDA-N
SNB-19 CNS = test system: SNB-19 CNS
CCRF-CEM leukemia = test system: CCRF-CEM leukemia
NCI-H23 lung = test system: NCI-H23 lung
UACC-257 melanoma = test system: UACC-257 melanoma
SK-OV-3 ovarian = test system: SK-OV-3 ovarian

O=c1[nH]c2cc([N+](=O)[O-])c(N/N=C/c3ccc([N+](=O)[O-])o3)c([N+](=O)[O-])c2[nH]1
GI50 (DU-145 prostate): 5.4 µM | TGI (DU-145 prostate): 19.6 µM | GI50 (NCI-H322M lung): 6.88 µM | TGI (NCI-H322M lung): 19 µM | GI50 (MDA-MB-435): 6.6 µM | TGI (MDA-MB-435): 21.7 µM | GI50 (M14 melanoma): 6.56 µM | TGI (M14 melanoma): 22.3 µM | GI50 (EKVX NSCLC): 17.3 µM | TGI (EKVX NSCLC): 32.2 µM | GI50 (UACC-62 melanoma): 9.26 µM | TGI (UACC-62 melanoma): 21.8 µM | GI50 (OVCAR-8 ovarian): 14 µM | TGI (OVCAR-8 ovarian): 44.3 µM | GI50 (NCI-H226 lung): 10.3 µM | TGI (NCI-H226 lung): 61.2 µM | GI50 (SN12C renal): 10.1 µM | TGI (SN12C renal): 24.9 µM | GI50 (MOLT-4 leukemia): 14.5 µM | TGI (MOLT-4 leukemia): > 100 µM | GI50 (COLO 205 colon): 9.98 µM | TGI (COLO 205 colon): 28.9 µM | GI50 (A549 NSCLC): 18.1 µM | TGI (A549 NSCLC): 36.2 µM | GI50 (LOX IMVI melanoma): 5.87 µM | TGI (LOX IMVI melanoma): 20.6 µM | GI50 (NCI-H460 lung): 16.3 µM | TGI (NCI-H460 lung): 32.8 µM | GI50 (SF-295 CNS): 22.5 µM | TGI (SF-295 CNS): 69.9 µM | GI50 (IGROV1 ovarian): 16.3 µM | TGI (IGROV1 ovarian): 31.7 µM | GI50 (RXF 393 renal): 14.3 µM | TGI (RXF 393 renal): 37.4 µM | GI50 (HT29 colon): 18.5 µM | TGI (HT29 colon): 36.6 µM | GI50 (HOP-62 NSCLC): 3.37 µM | TGI (HOP-62 NSCLC): 17.6 µM | GI50 (HL-60(TB) leukemia): 12.9 µM | TGI (HL-60(TB) leukemia): 49.7 µM | GI50 (MALME-3M melanoma): 16.4 µM | TGI (MALME-3M melanoma): 30.8 µM | GI50 (SF-268 CNS): 10.1 µM | TGI (SF-268 CNS): 28.5 µM | GI50 (HCT-116 colon): 12.9 µM | TGI (HCT-116 colon): 27.2 µM | GI50 (SK-MEL-2 melanoma): 12.6 µM | TGI (SK-MEL-2 melanoma): 32.7 µM | GI50 (CAKI-1 renal): 16.5 µM | TGI (CAKI-1 renal): 41.8 µM | GI50 (RPMI-8226 leukemia): 11.7 µM | TGI (RPMI-8226 leukemia): 48.6 µM | GI50 (BT-549 breast): 11.3 µM | TGI (BT-549 breast): 23.8 µM | GI50 (NCI-H522 lung): 5.89 µM | TGI (NCI-H522 lung): 23.5 µM | GI50 (NCI/ADR-RES ovarian): 27.3 µM | TGI (NCI/ADR-RES ovarian): > 100 µM | GI50 (U251 CNS): 5.68 µM | TGI (U251 CNS): 21.4 µM | GI50 (OVCAR-3 ovarian): 7.52 µM | TGI (OVCAR-3 ovarian): 28.2 µM | GI50 (HOP-92 NSCLC): 17.4 µM | TGI (HOP-92 NSCLC): 35 µM | GI50 (UO-31 renal): 15.9 µM | TGI (UO-31 renal): 32.4 µM | GI50 (786-0 renal): 5.75 µM | TGI (786-0 renal): 28.5 µM | GI50 (HCT-15 colon): 14.3 µM | TGI (HCT-15 colon): 36.5 µM | GI50 (SK-MEL-5 melanoma): 11.7 µM | TGI (SK-MEL-5 melanoma): 25 µM | GI50 (SF-539 CNS): 15 µM | TGI (SF-539 CNS): 31.6 µM | GI50 (KM12 colon): 7.37 µM | TGI (KM12 colon): 21.6 µM | GI50 (SW-620 colon): 16.4 µM | TGI (SW-620 colon): > 100 µM | GI50 (SR leukemia): 5.74 µM | TGI (SR leukemia): 50.8 µM | GI50 (MCF7 breast): 11.4 µM | TGI (MCF7 breast): 30.9 µM | GI50 (ACHN renal): 15.3 µM | TGI (ACHN renal): 29.9 µM | GI50 (SNB-75 CNS): 13.8 µM | TGI (SNB-75 CNS): 32.5 µM | GI50 (MDA-MB-231 breast): 20.4 µM | TGI (MDA-MB-231 breast): 46.8 µM | GI50 (A498 renal): 18 µM | TGI (A498 renal): 32.8 µM | GI50 (HS 578T breast): 8.29 µM | TGI (HS 578T breast): > 100 µM | GI50 (OVCAR-4 ovarian): 16 µM | TGI (OVCAR-4 ovarian): 32.3 µM | GI50 (PC-3 prostate): 26.7 µM | TGI (PC-3 prostate): > 100 µM | GI50 (K-562 leukemia): 14.4 µM | TGI (K-562 leukemia): 81.9 µM | GI50 (OVCAR-5 ovarian): 30.9 µM | TGI (OVCAR-5 ovarian): 93.8 µM | GI50 (T-47D breast): 15 µM | TGI (T-47D breast): 42.1 µM | GI50 (SK-MEL-28 melanoma): 17.6 µM | TGI (SK-MEL-28 melanoma): 39.5 µM | GI50 (MDA-N): 10.7 µM | TGI (MDA-N): 28 µM | GI50 (SNB-19 CNS): 7.06 µM | TGI (SNB-19 CNS): 22.6 µM | GI50 (CCRF-CEM leukemia): 7.5 µM | TGI (CCRF-CEM leukemia): 56.7 µM | GI50 (NCI-H23 lung): 12.7 µM | TGI (NCI-H23 lung): 29 µM | GI50 (UACC-257 melanoma): 13.7 µM | TGI (UACC-257 melanoma): 26.9 µM | GI50 (SK-OV-3 ovarian): 16.4 µM | TGI (SK-OV-3 ovarian): 54.4 µM

— PubChem BioAssay (NCI)
